Structures are written as SMILES. The source made the active and inactive calls. The rule behind the calls is not given here.

Here are results for three compounds from ChEMBL document CHEMBL1125719, “2-(3,4-Dichlorophenyl)-N-methyl-N-[2-(1-pyrrolidinyl)-1-substituted- ethyl]-acetamides: the use of conformational analysis in the development of a novel series of potent opioid kappa agonists” (1991).

The species named for this assay is Mus musculus. In words: Molar potency ratio relative to the standard agonist EKC on field-stimulated mouse vas deferens; Not Active.
For `CN(CCN1CCCC1)C(=O)Cc1ccc(Cl)c(Cl)c1`, the “Potency vs EKC” value was “inactive”.
As for `C[C@H](CN1CCCC1)N(C)C(=O)Cc1ccc(Cl)c(Cl)c1`, the entry is “inactive”; as for `C[C@H]([C@H](C)N(C)C(=O)Cc1ccc(Cl)c(Cl)c1)N1CCCC1`, “inactive”.
